Source: ChEMBL document CHEMBL1157817, “2-aminoimidazole amino acids as inhibitors of the binuclear manganese metalloenzyme human arginase I” (J Med Chem, 2010)

Target: T1, Arginase-1 (Homo sapiens, UniProt P05089)
T1 sequence (P05089 whole entry): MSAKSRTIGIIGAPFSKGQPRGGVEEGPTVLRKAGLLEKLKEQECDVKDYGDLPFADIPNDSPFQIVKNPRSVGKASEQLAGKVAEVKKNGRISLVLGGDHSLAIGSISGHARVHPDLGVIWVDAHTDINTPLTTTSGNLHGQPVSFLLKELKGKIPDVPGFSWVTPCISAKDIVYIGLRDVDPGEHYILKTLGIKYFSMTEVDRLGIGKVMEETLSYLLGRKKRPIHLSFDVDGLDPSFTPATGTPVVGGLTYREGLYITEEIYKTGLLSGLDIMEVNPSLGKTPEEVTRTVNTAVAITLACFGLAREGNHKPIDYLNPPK
Assay: Inhibition of human recombinant full length arginase 1 expressed in Escherichia coli BL21(DE3) by fixed point assay
How it was run: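 Fixed-point assay with [14C-guanidino]-L-arginine. […] Inhibition mode from Lineweaver-Burk plots at several inhibitor concentrations.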

| Ki | Compound |
| --- | --- |
| 300 µM | Nc1ncc(C[C@H](N)C(=O)O)[nH]1 |
| 3000 µM | Nc1ncc(CC[C@H](N)C(=O)O)[nH]1 |
